From patent US20260382479A1, “COSMETIC USE OF A COMPOSITION FOR CARING FOR KERATIN MATERIALS COMPRISING AT LEAST INDOLE-3-ACETAMIDE” (published 2026)

Tests used:
Nrf2 = assay: qPCR expression of Nrf2 in cocktail-stimulated RHE; conditions: I3A 10 μg/ml, FICZ 100 ng/ml, 48 h, Stim mean 0.81
Procedure: (§1) The reconstructed epidermis rests on an inert non-submerged polycarbonate surface of 0.5 cm^2, and is cultured on cell culture medium (Episkin). In our study, the RHEs are produced using filaggrin (FLG)-deficient keratinocytes. […] This FLG-deficient line was generated using a short hairpin RNA that targets FLG (shFLG). The use of the RHE-shFLG in a 3D RHE model has been published (see Madiedo-Podvrsan et al., Sci Rep. 2021 Mar. 18; 11(1):6217). […]
(§2) The inflammatory cocktail as defined above, and also the various molecules to be tested (I3A, IALD and FICZ), are added simultaneously to the suitable cell culture medium, in which the RHEs are placed. […] The culture supernatant is then recovered, and the various chemokines are measured (kits in Table 1 below). […] The expression of the target genes (Table 1 below) is measured by qPCR.
(§3) All experiments were performed with at least three biological replicates. […] The data was analysed with the one-way ANOVA test followed by Dunnett's multi-comparison test. […]

Nqo1 = assay: qPCR expression of Nqo1 in cocktail-stimulated RHE; conditions: I3A 10 μg/ml, FICZ 100 ng/ml, 48 h, Stim mean 1.17
Procedure: as §1, §2, §3

Cyp1a1 pathway = conditions: literature; cited from earlier work
Hmox1 = assay: qPCR expression of Hmox1 in cocktail-stimulated RHE; conditions: I3A 10 μg/ml, FICZ 100 ng/ml, 48 h, Stim mean 3.42
Procedure: as §1, §2, §3

[1] = test system: stratum corneum of the RHE epidermis; assay: Stratum corneum thickness of RHE epidermis (H&E histology, DHisTo-Skin software); conditions: I3A 10 μg/ml; FICZ 100 ng/ml; cocktail-stimulated RHE, 48 h; non-stimulated control 19.88, stimulation 14.07
Procedure: as §1
48 h after culturing the RHEs under the different stimulation conditions, the tissues are fixed in 4% paraformaldehyde (w/v), pH 6.9 (Carlo Erba Reagents, France) and kept at 4 °C for 24 to 48 h. […] The slides are scanned using a Nanozoomer S60 (Hamamatsu, Japan) and analyzed using the NDP view software. The images are analyzed with the DHisTo-Skin software (Digital Histological Tools for Skin), using the GeoLower algorithm.
as §3

TSLP [2] = assay: TSLP production in culture supernatant of cocktail-stimulated RHE-shFLG (atopic dermatitis model); conditions: IALD, I3A 10 μg/ml, FICZ 100 ng/ml, 48 h after stimulation, Poly(I:C) + IL-4 + IL-13 + TNF
Procedure: (§4) The reconstructed epidermis rests on an inert non-submerged polycarbonate surface of 0.5 cm^2, and is cultured on cell culture medium (Episkin). In our study, the RHEs are produced using filaggrin (FLG)-deficient keratinocytes. […] This FLG-deficient line was generated using a short hairpin RNA that targets FLG (shFLG). The use of the RHE-shFLG in a 3D RHE model has been published (see Madiedo-Podvrsan et al., Sci Rep. 2021 Mar. 18; 11(1):6217).
(§5) In order to produce a phenotype similar to that observed in atopic dermatitis patients in terms of chemokines produced and histology, it is necessary to stimulate the RHEs using a cocktail composed of: • Polyinosinic-polycytidylic acid (Poly (I:C)) (Reference P9582, Sigma) at 10 μg/ml; • Interleukin 4 (IL-4) (Reference BMS337, Invitrogen) and Interleukin 13 (IL-13) (Reference 213-ILB, R&D Systems) at 50 ng/ml; and • TNF (Tumour necrosis factor Reference 210-TA/CF, R&D Systems) at 10 ng/ml. […]
as §2, §3
The metabolites alone are unable to induce TSLP or the various chemokines measured. Stimulation of the shFLG model by the (Poly(I:C), TNFa, IL-13, IL-4) cocktail as mentioned above results in TSLP production which is on average 10 times greater, and between 20 to 30 times greater for the other chemokines measured, than the control conditions in the culture supernatant.
The results in Table 2 below are expressed as percentage difference relative to the stimulated control in the RHE shFLG model. […]

TRAIL = TRAIL production in culture supernatant of cocktail-stimulated RHE-shFLG (atopic dermatitis model); conditions: IALD, I3A 10 μg/ml, FICZ 100 ng/ml, 48 h after stimulation, Poly(I:C) + IL-4 + IL-13 + TNF
Procedure: as §4, §5, §2, §3
The results in Table 2 below are expressed as percentage difference relative to the stimulated control in the RHE shFLG model.
This Table 2 represents the percentage of the level of expression of TSLP and TRAIL (tumour necrosis factor-related apoptosis-inducing ligand) relative to the stimulated control in the RHE culture medium 48 h after stimulation. The p-values are calculated with respect to the stimulated control.

Cyp1a1 = assay: qPCR expression of Cyp1a1 in cocktail-stimulated RHE; conditions: for Cyp1a1 gene expression (qPCR), mean: I3A 10 μg/ml, FICZ 100 ng/ml, cocktail-stimulated RHE, 48 h, Stim mean 0.99; for induction of the Cyp1a1 pathway (in words): keratinocytes, "as shown in the examples below"
Procedure: as §4
In order to produce a phenotype similar to that observed in atopic dermatitis patients in terms of chemokines produced and histology, it is necessary to stimulate the RHEs using a cocktail composed of: • Polyinosinic-polycytidylic acid (Poly (I:C)) (Reference P9582, Sigma) at 10 μg/ml; • Interleukin 4 (IL-4) (Reference BMS337, Invitrogen) and Interleukin 13 (IL-13) (Reference 213-ILB, R&D Systems) at 50 ng/ml; and • TNF (Tumour necrosis factor Reference 210-TA/CF, R&D Systems) at 10 ng/ml.
Simultaneous bringing into contact with the various molecules to be tested: • IALD ref: 129445, Sigma: stock solution 10 mg/ml in DMSO diluted in the RHE (Episkin) culture medium to the final concentration of 10 μg/ml; • FICZ ref: SML1489, Sigma: stock solution 0.5 mg/ml in DMSO diluted in the RHE (Episkin) culture medium at the final concentration of 100 ng/ml; and • I3A ref: 286281, Sigma: stock solution 10 mg/ml in DMSO diluted in the RHE (Episkin) culture medium to the final concentration of 10 μg/ml. Measuring the Chemokines in the Culture Supernatant, and qPCR
(§6) The inflammatory cocktail as defined above, and also the various molecules to be tested (I3A, IALD and FICZ), are added simultaneously to the suitable cell culture medium, in which the RHEs are placed. The culture plates are then incubated at 37 °C for 48 hours. The culture supernatant is then recovered, and the various chemokines are measured (kits in Table 1 below). The RHEs are milled using ceramic beads and the RNA is extracted according to the manufacturer's instructions (kits in the table below). The expression of the target genes (Table 1 below) is measured by qPCR.
All experiments were performed with at least three biological replicates. The data is presented in the form of mean±SEM. GraphPad Prism (version 7.0; GraphPad Software, La Jolla, California). The data was analysed with the one-way ANOVA test followed by Dunnett's multi-comparison test. The results are considered to be statistically significant when p<0.05.
(§7) qPCRs were performed to examine the expression of certain target genes induced in the context of the AhR pathway following stimulation with the cocktail that mimics certain phenotypes of atopic dermatitis, as defined above.

antioxidant pathways = assay: Antioxidant pathways (Nrf2, Hmox1, Nqo1 expression) under atopic conditions
Procedure: as §6, §7
Conversely, a weaker induction of Cyp1a1 by I3A is observed in comparison with that by FICZ. Thus, I3A induces fewer adverse effects than FICZ, or even no adverse effects, by limiting the induction of Cyp1a1 and thus the xenobiotic pathway. Induction of the antioxidant pathway is monitored using the expression of the genes Nrf2, Hmox1, and Ngo1. Under atopic conditions, I3A slightly induces the antioxidant pathways.

[3] = test system: undifferentiated/dedifferentiated keratinocytes; assay: Undifferentiated/dedifferentiated keratinocytes in RHE shFLG model (histology); conditions: RHE shFLG stimulated with cocktail; data not presented
Procedure: as §4, §5
48 h after culturing the RHEs under the different stimulation conditions, the tissues are fixed in 4% paraformaldehyde (w/v), pH 6.9 (Carlo Erba Reagents, France) and kept at 4 °C for 24 to 48 h. […] The slides are scanned using a Nanozoomer S60 (Hamamatsu, Japan) and analyzed using the NDP view software. The images are analyzed with the DHisTo-Skin software (Digital Histological Tools for Skin), using the GeoLower algorithm. […]

TSLP [4] = conditions: said to be dependent on AhR pathway; cited from earlier work
[5] = test system: dermatitis-like mouse model; conditions: topical application, Yu et al 2019; cited from earlier work

Row | SMILES | Nrf2 gene expression (qPCR), mean (Nrf2) | Nqo1 gene expression (qPCR), mean (Nqo1) | induction of the Cyp1a1 pathway (in words) (Cyp1a1 pathway) | Hmox1 gene expression (qPCR), mean (Hmox1) | mean thickness of stratum corneum [1] [μm] | TSLP production, percentage difference relative to the stimulated control (mean) (TSLP [2]) [%] | TRAIL production, percentage difference relative to the stimulated control (mean) (TRAIL) [%] | Cyp1a1 gene expression (qPCR), mean (Cyp1a1) | induction of the antioxidant pathways (in words) (antioxidant pathways) | decrease of surface area and/or number of undifferentiated/dedifferentiated keratinocytes (in words) [3] | induction of the Cyp1a1 pathway (in words) (Cyp1a1) | inhibition of TSLP production in keratinocytes (in words) (TSLP [4]) | reduction of skin inflammation (in words) [5]
1 | O=Cc1c2[nH]c3ccccc3c2cc2[nH]c3ccccc3c12 | 1 | 1.32 | strong inducer | 4.67 | 16.2 | −39.45 | −64.69 | 11.09 |  |  |  |  | 
2 | NC(=O)Cc1c[nH]c2ccccc12 | 0.46 | 0.5 |  | 2.45 | 18.07 | −51.35 | −23.53 | 1.57 | slightly induces | able to decrease | only very weakly induces, or does not induce |  | 
3 | O=Cc1c[nH]c2ccccc12 |  |  |  |  |  | −42.69 | −7.45 |  |  |  | strong inducer | inhibit production of TSLP | reduce skin inflammation
